Columns and labels:
[1] = Table 1; cited from earlier work
[2] = Table 2, positively charged drugs; cited from earlier work
[3] = In vitro dissolution (drug release) from 400 mg matrix tablets, USP apparatus II, SGF or SIF; format: physicochemical
[4] = 1:1.5 PAA/PEO excipient mixture, SIF

| Substance | Log P [1] | Solubility [2] [mg/mL] | T10 [3, 4] [h] | T50 [3, 4] [h] | T50 in SIF ([3]; 1:1.5 PAA/PEO, SIF) [h] | T50 in SGF ([3]; 1:1.5 PAA/PEO, modified SGF) [h] |
| --- | --- | --- | --- | --- | --- | --- |
| Amitriptuline HCl | 4.8 | – | – | – | – | – |
| Thiamine Mononitrate | – | 300 | 1 | 14 | 14 | 3 |
